Measurements as given in PMC9457941, “Synthesis and Kinase Inhibitory Potencies of Pyrazolo[3,4-g]isoquinolines” (Molecules, 2022).

Target: T1, Haspin-kd (human, kinase domain, amino acids 470–798) (Homo sapiens, UniProt Q8TF76)
T1 construct: Haspin-kd (human, kinase domain, amino acids 470–798, recombinant, expressed in bacteria); host or cells: bacteria
T1 sequence (Q8TF76 470-798): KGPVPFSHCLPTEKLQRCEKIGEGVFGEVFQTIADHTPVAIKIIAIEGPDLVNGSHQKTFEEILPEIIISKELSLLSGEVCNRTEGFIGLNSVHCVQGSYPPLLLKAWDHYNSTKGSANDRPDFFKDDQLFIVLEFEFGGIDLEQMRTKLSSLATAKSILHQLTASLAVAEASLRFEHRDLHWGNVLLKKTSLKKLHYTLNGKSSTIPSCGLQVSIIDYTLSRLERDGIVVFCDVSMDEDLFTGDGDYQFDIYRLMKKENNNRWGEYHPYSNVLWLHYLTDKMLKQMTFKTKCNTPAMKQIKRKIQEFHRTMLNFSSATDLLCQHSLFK
Assay: ADP-Glo kinase inhibition assay, Haspin
Assay type: biochemical
Settings: Haspin vs. CLK1, from IC50 values of reference 2
Method: Kinase enzymatic activities were assayed in 384 well plates using the ADP-GloTM assay kit (Promega, Madison, WI, USA) according to the manufacturer’s guidance. Briefly, the reactions were carried out in a final volume of 6 μL for 30 min at 30 °C in an appropriate kinase buffer (10 mM MgCl2, 1 mM EGTA, 1 mM DTT, 25 mM Tris-HCl pH 7.5, 50 μg/mL heparin), with either protein or peptide as substrate in the presence of 10 μM ATP (40 mM Tris pH 7.5, 20 mM MgCl2 and 0.1 mg/mL of BSA). Afterward, 6 μL of ADP-GloTM Kinase Reagent was added to stop the kinase reaction. After an incubation time of 50 min at room temperature (RT), 12 μL of Kinase Detection Reagent was added for 1 h at RT. The transmitted signal was measured using the Envision (Perkin Elmer, Waltham, MA, USA) microplate luminometer and expressed in relative light unit (RLU). In order to determine the half maximal inhibitory concentration (IC50), the assays were performed in duplicate in the absence or presence of increasing doses of the tested compounds. GraphPad Prism6 software (GraphPad Software, San Diego, CA, USA) was used to fit dose–response curves and to determine the IC50 values. Kinase activities are expressed in the percentage of maximal activity, i.e., measured in the absence of an inhibitor. Peptide substrates were obtained from Proteogenix (Schiltigheim, France).

Selectivity Index (SI) Haspin vs. CLK1 = CLK1 IC50/Haspin IC50: 1.9
SMILES: CSc1ncc2cc3cnccc3c([N+](=O)[O-])c2n1 [II, reference compound]
